In paper PMC10683372 (Protein Science : A Publication of the Protein Society, 2023):

Columns and labels:
αT S195A = αT S195A (Homo sapiens, UniProt P00734, S568A); assay: Direct fluorescence binding of [F]‐Haem(45–57) to isolated αT S195A; settings: [F]‐Haem(45–57) 60 nM titrated with free αT S195A; exc. 492 nm, em. 516 nm; Eq. 1; average of three
[1] = target: S195A‐hirudin complex (exosite II available) (Homo sapiens, UniProt P00734, S568A); assay: Direct fluorescence binding of [F]‐Haem(45–57) to preformed S195A‐hirudin complex
α‐thrombin (αT) = α‐thrombin (αT) (Homo sapiens, UniProt P00734); assay: Tight-binding inhibition of αT amidolytic activity on chromogenic substrate S2238; assay type: biochemical; settings: 25 ± 0.1°C, TBS; αT 250 pM incubated with peptide, S2238 50 μM; tight‐binding model (Eq. 3, 4); average of three independent measurements ± SD

| SMILES | Kd (αT S195A) [µM] | fold lower affinity for αT‐hirudin complex (exosite II) than for free αT (exosite I) [1] [fold] | Kd ([1]; [F]‐Haem(45–57) 60 nM titrated with S195A‐hirudin complex (active site and exosite I blocked), Eq. 1, average of three) [µM] | Ki (α‐thrombin (αT)) [µM] |
| --- | --- | --- | --- | --- |
| CC[C@H](C)[C@H](NC(=O)[C@H](CCC(=O)O)NC(=O)[C@H](Cc1ccccc1)NC(=O)[C@H](CCC(=O)O)NC(=O)[C@H](CCC(=O)O)NC(=O)[C@H](Cc1ccccc1)NC(=O)[C@H](CCC(=O)O)NC(=O)[C@H](CO)NC(=O)c1ccc2c(c1)C(=O)OC21c2ccc(O)cc2Oc2cc(O)ccc21)C(=O)N[C@@H](CC(=O)O)C(=O)N[C@@H](CCC(=O)O)C(=O)N[C@@H](CCC(=O)O)C(=O)N[C@@H](CCC(=O)O)C(=O)N[C@@H](CCCCN)C(=O)O | 0.35 | > 35 | 12.8 | – |
| CC[C@H](C)[C@H](N)C(=O)N[C@@H](CCCNC(=N)N)C(=O)N[C@@H](Cc1ccccc1)C(=O)NCC(=O)N[C@@H](CCSC)C(=O)NCC(=O)N[C@@H](CCCCN)C(=O)N[C@H](C(=O)N1CCC[C@H]1C(=O)NCC(=O)O)C(C)C | – | – | – | 1.9 |
